The test system of one data set is Sprague Dawley rats. Put plainly: Induction of penile erection by intravenous injection. To be noted: male, rat, in vivo, 0.5 h.
Another data set has as its target T1, MC2-R (Mus musculus, UniProt Q64326).
T1 construct: Y1 cells were used as the source of MC2 receptors; endogenous in cells; host or cells: Y1 cells
Put plainly: Competitive binding assay with 125I-NDP-MSH, MC2 receptors.

Sequences of proteins named here, by UniProt entry; tags and fusion partners are left off. A change or cut given only in a name is not applied to a line headed by its entry.
UniProt Q64326: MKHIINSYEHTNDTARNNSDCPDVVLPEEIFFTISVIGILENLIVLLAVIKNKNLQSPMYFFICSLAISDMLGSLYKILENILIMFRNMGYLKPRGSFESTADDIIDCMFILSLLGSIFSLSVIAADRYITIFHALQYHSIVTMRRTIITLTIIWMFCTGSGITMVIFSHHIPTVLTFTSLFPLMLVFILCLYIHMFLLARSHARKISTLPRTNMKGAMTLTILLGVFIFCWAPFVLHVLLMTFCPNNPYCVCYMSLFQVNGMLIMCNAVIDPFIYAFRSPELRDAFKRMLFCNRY
UniProt P32245, whole entry: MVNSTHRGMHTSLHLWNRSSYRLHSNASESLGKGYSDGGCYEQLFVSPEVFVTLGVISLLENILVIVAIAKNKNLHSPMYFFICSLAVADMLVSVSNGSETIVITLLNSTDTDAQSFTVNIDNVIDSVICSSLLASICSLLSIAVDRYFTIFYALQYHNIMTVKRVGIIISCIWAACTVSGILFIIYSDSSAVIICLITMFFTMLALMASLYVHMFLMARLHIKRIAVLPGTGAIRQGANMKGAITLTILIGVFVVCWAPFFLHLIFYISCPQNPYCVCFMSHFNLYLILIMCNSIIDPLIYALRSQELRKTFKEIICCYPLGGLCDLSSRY

For a further data set, the target named is MC4-R (Homo sapiens, UniProt P32245). Put plainly: Agonist activity by cAMP detection in HEK 293 cells. The conditions noted are these: test compound 1 × 10^−7M. On the set-up: expressed in transfected cells; host or cells: HEK 293 cells, stably transfected. It is filed as cell-based.

The record followed here is US6794489B2, “Compositions and methods for treatment of sexual dysfunction” (Palatin Technologies, Inc., priority 1999, dated 2004).

By Ki is commonly meant the equilibrium dissociation constant of an inhibitor or competing ligand from its target. Low readings indicate a stronger hold on the target, high ones a looser hold on the target. Turning to `CCCCC(NC(C)=O)C(=O)NC1CC(=O)NCCCCC(C(=O)O)NC(=O)C(Cc2c[nH]c3ccccc23)NC(=O)C(CCCNC(=N)N)NC(=O)C(Cc2ccccc2)NC(=O)C(Cc2c[nH]cn2)NC1=O` [Compound 1, Ac-Nle-cyclo(-Asp-His-D-Phe-Arg-Trp-Lys)-OH], in the data set on Sprague Dawley rats, the “Therapeutic window (desired therapeutic effect to observed adverse effects)” value is > 1,000 fold. Also, the Ki at MC2-R was more than 1 µM. Regarding α-MSH, the “cAMP CONCENTRATION” value at MC4-R came to 107.7 pmol/mL.
